Experimental findings from paper PMC11860274, “In Vitro Signaling Properties of Cannabinoid and Orexin Receptors: How Orexin Receptors Influence Cannabinoid Receptor‐Mediated Signaling” (Pharmacology Research & Perspectives, 2025) are described below.

Chains of the proteins cited; added tags and fusions are not shown.
UniProt P21554, whole entry: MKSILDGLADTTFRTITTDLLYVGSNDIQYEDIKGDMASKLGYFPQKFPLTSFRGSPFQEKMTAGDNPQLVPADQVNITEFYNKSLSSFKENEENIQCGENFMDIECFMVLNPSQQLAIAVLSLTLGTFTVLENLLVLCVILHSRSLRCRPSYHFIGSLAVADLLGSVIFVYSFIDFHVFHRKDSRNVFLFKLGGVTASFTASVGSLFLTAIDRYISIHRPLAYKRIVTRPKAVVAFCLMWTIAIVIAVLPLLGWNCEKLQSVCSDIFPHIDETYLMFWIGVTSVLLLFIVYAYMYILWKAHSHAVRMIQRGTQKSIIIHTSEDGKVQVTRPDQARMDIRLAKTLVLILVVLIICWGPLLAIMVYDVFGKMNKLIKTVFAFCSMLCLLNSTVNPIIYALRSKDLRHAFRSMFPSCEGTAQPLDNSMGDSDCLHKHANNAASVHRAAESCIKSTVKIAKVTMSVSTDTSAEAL
UniProt P34972, whole entry: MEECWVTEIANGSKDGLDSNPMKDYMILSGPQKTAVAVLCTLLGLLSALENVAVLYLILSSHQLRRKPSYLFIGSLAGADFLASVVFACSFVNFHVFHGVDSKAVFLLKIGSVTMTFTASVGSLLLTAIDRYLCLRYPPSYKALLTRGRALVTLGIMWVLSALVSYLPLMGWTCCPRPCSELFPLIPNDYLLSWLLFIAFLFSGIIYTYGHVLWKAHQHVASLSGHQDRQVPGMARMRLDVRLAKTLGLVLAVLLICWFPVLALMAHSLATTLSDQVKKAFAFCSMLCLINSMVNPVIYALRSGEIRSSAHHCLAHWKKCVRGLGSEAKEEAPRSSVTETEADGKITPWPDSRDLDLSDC

The target in assay [1] is T1, CB1 (HitHunter cAMP cells) (Homo sapiens, UniProt P21554).
T1 construct: gene CNR1; unmodified full receptor stably expressed in CHO-K1 HitHunter cAMP cells (DiscoverX)
Nature of the assay: HitHunter cAMP inhibition, enzyme fragment complementation. It is filed as cell-based. The following applies: agonist; no OX plasmid (mock transfection); 10 μM forskolin, 90 min, 37°C; printed pEC50 8.8 ± 0.45; unreliable. An excerpt: HitHunter cAMP inhibition, enzyme fragment complementation on CB1 (HitHunter cAMP cells)

For assay [2], the target named is T2, CB2 (HitHunter cAMP cells) (Homo sapiens, UniProt P34972).
T2 construct: gene CNR2; unmodified full receptor stably expressed in CHO-K1 HitHunter cAMP cells (DiscoverX)
The description is as above. The format is cell-based. The following applies: agonist; no OX plasmid (mock transfection); 10 μM forskolin, 90 min, 37°C; printed pEC50 8.0 ± 0.62; Hill slope constrained to 1; unreliable. An excerpt: HitHunter cAMP inhibition, enzyme fragment complementation on CB2 (HitHunter cAMP cells)

Consider “(−)‐cis‐3‐[2‐Hydroxy‐4‐(1,1‐dimethylheptyl)phenyl]‐trans‐4‐(3‐hydroxypropyl)cyclohexanol [CP55,940]”, for which the “cAMP / pEC50 (nM)” value amounted to 1.5 nM in assay [1] and 10 nM in assay [2].
